Assay results: ChEMBL document CHEMBL5154884, “Discovery of a Novel Src Homology-2 Domain Containing Protein Tyrosine Phosphatase-2 (SHP2) and Cyclin-Dependent Kinase 4 (CDK4) Dual Inhibitor for the Treatment of Triple-Negative Breast Cancer” (J Med Chem, 2022)

What was measured:
Homo sapiens [1] = species on record: Homo sapiens; assay: Selectivity index, ratio of IC50 for inhibition of recombinant N-terminal GST/His6-fusion tagged human CDK12/Cyclin K to IC50 for inhibition of recombinant full length N-terminal GST/His6-fusion tagged human CDK9/Cyclin T1
Homo sapiens [2] = species on record: Homo sapiens; assay: Selectivity index, ratio of IC50 for inhibition of recombinant N-terminal GST/His6-fusion tagged human CDK2/Cyclin E2 to IC50 for inhibition of recombinant full length N-terminal GST/His6-fusion tagged human CDK9/Cyclin T1
Homo sapiens [3] = species on record: Homo sapiens; assay: Selectivity index, ratio of IC50 for inhibition of recombinant N-terminal GST/His6-fusion tagged human CDK3/Cyclin E to IC50 for inhibition of recombinant full length N-terminal GST/His6-fusion tagged human CDK9/Cyclin T1
Homo sapiens [4] = species on record: Homo sapiens; assay: Selectivity index, ratio of IC50 for inhibition of recombinant full length N-terminal GST/His6-fusion tagged human CDK5/P25 to IC50 for inhibition of recombinant full length N-terminal GST/His6-fusion tagged human CDK9/Cyclin T1
Homo sapiens [5] = species on record: Homo sapiens; assay: Selectivity index, ratio of IC50 for inhibition of recombinant N-terminal GST/His6-fusion tagged human CDK6/Cyclin D3 to IC50 for inhibition of recombinant full length N-terminal GST/His6-fusion tagged human CDK9/Cyclin T1
Homo sapiens [6] = species on record: Homo sapiens; assay: Selectivity index, ratio of IC50 for inhibition of CDK7/Cyclin H (unknown origin) to IC50 for inhibition of recombinant full length N-terminal GST/His6-fusion tagged human CDK9/Cyclin T1
Homo sapiens [7] = species on record: Homo sapiens; assay: Selectivity index, ratio of IC50 for inhibition of recombinant N-terminal GST/His6-fusion tagged human CDK1/Cyclin B to IC50 for inhibition of recombinant full length N-terminal GST/His6-fusion tagged human CDK9/Cyclin T1
Homo sapiens [8] = species on record: Homo sapiens; assay: Selectivity index, ratio of IC50 for inhibition of recombinant N-terminal GST/His6-fusion tagged human CDK13/Cyclin K to IC50 for inhibition of recombinant full length N-terminal GST/His6-fusion tagged human CDK9/Cyclin T1

Measured: Ratio IC50

Cc1nc2c(F)cc(-c3nc(Nc4nccc(Sc5cnc(N6CCC7(CC6)CO[C@@H](C)[C@H]7N)cn5)c4Cl)ncc3F)cc2n1C(C)C
> 10: all assays above
